Laboratory results taken from ChEMBL document CHEMBL5550109, “Synergistic therapeutics: Co-targeting histone deacetylases and ribonucleotide reductase for enhanced cancer treatment” (Eur J Med Chem, 2024).

How the values were obtained:
[1] = target: T1, Histone deacetylase 8 (Homo sapiens, UniProt Q9BY41); experiment: Inhibition of HDAC8 (unknown origin)
T1 sequence (Q9BY41 whole entry): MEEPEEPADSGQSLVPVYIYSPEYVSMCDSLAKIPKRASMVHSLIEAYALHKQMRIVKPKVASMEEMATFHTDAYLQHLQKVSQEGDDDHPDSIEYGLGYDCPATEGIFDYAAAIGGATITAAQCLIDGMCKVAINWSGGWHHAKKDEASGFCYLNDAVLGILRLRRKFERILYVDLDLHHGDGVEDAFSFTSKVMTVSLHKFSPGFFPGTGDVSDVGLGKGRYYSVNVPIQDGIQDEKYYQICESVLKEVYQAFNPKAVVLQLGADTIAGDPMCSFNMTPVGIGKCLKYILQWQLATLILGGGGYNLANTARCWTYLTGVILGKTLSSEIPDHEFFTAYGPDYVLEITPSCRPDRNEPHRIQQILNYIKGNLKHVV

[2] = target: T2, Polyamine deacetylase HDAC10 (Homo sapiens, UniProt Q969S8); experiment: Inhibition of HDAC10 (unknown origin)
T2 sequence (Q969S8 whole entry): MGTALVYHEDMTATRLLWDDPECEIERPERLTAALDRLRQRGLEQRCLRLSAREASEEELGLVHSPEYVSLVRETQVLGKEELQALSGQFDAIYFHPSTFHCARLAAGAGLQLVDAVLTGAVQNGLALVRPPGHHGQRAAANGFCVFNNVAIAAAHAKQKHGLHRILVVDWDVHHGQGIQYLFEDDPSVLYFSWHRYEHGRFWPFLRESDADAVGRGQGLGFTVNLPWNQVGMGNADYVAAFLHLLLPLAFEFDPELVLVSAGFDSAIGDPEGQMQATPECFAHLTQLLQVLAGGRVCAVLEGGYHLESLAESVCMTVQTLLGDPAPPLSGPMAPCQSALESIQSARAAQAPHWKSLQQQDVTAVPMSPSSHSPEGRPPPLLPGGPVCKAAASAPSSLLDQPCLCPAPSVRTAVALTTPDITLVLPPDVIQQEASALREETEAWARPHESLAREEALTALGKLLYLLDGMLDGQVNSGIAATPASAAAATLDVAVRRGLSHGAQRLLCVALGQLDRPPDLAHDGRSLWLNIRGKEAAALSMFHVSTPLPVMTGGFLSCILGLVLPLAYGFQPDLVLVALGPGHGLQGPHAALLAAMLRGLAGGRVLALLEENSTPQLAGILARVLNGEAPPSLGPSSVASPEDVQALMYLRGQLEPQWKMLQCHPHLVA

IC50 [1]: 22 nM | IC50 [2]: 31 nM
Structure (SMILES): O=C(CCCCCCC(=O)Nc1ccccc1)NO [VORINOSTAT]
